According to patent US9532519B2, “Plant growth regulator and use thereof” (Japan Science and Technology Agency, priority 2006, dated 2017):
This is a selection: effects in other tests are not listed, and their absence says nothing.

Test system: transformants of Arabidopsis to which a gene encoding gFBA was introduced and wild-type Arabidopsis (Columbia; Col)
Assay: Ammonium nitrate fertilization of gFBA transformants and wild-type Arabidopsis
Details: any of the plants

## ammonium nitrate
0, 3, 9 or 18 mM ammonium nitrate, 25 mL per three individuals one time a week
  whole amount of biomass and seed weight: increased as concentration of ammonium nitrate used as a fertilizer increased
3 mM- and 9 mM-ammonium nitrate
  harvest index: the harvest index increased
18 mM-ammonium nitrate
  harvest index: dropped lower than the harvest index in a case of using no fertilizer
  concentration at which the effect on biomass and seed weight was saturated: 18 mM
  concentration at which the increase of biomass and seed weight slowed down: 9 mM
